The values below are quoted from earlier work in US20250195668A1.

Chains of the proteins cited; added tags and fusions are not shown.
UniProt O15530, whole entry: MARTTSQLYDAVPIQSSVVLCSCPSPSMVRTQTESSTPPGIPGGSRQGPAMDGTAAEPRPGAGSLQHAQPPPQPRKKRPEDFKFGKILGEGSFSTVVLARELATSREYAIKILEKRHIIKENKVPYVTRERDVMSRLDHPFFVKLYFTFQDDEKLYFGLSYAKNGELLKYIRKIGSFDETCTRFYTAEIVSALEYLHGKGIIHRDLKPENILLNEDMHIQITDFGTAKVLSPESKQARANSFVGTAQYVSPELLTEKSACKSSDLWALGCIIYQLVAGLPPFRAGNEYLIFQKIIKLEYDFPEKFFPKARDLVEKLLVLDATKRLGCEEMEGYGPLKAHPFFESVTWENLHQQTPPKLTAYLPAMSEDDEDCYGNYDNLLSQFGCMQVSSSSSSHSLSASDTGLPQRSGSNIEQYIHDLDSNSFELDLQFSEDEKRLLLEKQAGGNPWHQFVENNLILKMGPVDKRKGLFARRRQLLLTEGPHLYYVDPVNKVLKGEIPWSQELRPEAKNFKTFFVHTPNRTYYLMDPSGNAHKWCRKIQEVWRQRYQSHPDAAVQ
UniProt Q12809, whole entry: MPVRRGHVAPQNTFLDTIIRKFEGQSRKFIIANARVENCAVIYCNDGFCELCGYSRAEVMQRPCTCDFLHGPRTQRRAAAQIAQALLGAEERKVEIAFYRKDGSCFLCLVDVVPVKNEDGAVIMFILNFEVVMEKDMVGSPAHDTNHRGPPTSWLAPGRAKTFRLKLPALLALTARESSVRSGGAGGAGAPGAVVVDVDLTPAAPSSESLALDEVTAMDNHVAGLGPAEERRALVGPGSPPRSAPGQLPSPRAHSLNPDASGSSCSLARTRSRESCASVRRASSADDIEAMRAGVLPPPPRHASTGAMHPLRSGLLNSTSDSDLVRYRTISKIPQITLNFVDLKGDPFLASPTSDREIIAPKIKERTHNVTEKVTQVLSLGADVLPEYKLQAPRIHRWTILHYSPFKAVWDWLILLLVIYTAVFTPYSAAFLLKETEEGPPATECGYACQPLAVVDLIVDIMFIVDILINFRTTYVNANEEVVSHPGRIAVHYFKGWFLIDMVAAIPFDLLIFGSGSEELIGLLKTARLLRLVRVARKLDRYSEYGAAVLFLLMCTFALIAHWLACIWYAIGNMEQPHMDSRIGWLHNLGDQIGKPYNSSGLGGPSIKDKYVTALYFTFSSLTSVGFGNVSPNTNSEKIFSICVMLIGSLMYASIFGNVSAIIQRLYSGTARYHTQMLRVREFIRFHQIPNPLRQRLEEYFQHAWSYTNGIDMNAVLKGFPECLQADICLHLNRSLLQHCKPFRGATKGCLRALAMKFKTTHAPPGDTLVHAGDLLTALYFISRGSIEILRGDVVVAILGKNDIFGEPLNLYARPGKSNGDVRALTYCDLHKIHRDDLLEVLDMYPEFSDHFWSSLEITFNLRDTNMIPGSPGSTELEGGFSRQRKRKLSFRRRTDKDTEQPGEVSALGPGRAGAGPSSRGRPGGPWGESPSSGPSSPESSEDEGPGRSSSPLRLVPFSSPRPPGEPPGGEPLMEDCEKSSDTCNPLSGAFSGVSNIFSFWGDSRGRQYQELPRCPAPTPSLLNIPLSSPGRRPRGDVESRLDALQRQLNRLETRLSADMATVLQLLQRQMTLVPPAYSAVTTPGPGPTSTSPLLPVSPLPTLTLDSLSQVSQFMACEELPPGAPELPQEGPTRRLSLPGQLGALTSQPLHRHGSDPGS
UniProt Q13153, whole entry: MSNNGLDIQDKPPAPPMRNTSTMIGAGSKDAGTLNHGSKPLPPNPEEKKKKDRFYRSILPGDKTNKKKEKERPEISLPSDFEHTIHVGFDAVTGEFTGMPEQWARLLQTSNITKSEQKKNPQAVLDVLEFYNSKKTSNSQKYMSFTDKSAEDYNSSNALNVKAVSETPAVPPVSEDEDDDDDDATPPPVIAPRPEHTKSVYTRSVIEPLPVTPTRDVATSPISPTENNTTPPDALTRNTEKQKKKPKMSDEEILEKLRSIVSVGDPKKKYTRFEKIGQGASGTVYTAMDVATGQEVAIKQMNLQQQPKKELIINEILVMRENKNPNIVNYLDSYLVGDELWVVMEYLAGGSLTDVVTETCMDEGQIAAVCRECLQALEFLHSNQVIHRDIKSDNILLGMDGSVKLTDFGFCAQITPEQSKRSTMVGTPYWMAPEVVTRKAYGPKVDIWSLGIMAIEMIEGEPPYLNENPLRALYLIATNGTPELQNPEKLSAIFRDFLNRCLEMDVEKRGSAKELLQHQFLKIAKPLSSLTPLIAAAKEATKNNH
UniProt Q13177, whole entry: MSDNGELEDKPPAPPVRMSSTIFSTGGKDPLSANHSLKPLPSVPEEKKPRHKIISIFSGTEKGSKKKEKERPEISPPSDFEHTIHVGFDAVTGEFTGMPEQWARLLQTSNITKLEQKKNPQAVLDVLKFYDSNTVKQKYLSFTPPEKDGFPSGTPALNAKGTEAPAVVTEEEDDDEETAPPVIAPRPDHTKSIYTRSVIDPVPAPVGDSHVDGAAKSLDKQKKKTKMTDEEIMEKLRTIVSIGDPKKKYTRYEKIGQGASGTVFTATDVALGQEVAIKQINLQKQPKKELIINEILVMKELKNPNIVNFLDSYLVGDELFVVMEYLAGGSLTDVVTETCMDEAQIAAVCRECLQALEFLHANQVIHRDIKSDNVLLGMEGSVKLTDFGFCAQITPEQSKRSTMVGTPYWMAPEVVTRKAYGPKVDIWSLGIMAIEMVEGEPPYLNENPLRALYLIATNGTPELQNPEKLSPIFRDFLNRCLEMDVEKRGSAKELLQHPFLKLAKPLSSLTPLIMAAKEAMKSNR
UniProt O75914, whole entry: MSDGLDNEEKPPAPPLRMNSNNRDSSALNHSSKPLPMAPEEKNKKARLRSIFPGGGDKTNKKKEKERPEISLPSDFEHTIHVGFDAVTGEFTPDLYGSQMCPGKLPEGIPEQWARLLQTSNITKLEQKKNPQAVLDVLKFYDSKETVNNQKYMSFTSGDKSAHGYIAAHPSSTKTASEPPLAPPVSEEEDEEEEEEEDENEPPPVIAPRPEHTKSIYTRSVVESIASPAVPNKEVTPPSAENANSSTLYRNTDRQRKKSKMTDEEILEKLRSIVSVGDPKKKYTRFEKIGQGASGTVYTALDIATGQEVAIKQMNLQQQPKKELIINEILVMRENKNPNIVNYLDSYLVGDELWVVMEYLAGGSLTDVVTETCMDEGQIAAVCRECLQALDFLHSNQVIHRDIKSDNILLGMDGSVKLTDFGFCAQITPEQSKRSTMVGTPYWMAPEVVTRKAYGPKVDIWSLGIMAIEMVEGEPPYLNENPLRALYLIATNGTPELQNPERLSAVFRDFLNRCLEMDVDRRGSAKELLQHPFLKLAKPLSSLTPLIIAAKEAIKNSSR
UniProt O96013, whole entry: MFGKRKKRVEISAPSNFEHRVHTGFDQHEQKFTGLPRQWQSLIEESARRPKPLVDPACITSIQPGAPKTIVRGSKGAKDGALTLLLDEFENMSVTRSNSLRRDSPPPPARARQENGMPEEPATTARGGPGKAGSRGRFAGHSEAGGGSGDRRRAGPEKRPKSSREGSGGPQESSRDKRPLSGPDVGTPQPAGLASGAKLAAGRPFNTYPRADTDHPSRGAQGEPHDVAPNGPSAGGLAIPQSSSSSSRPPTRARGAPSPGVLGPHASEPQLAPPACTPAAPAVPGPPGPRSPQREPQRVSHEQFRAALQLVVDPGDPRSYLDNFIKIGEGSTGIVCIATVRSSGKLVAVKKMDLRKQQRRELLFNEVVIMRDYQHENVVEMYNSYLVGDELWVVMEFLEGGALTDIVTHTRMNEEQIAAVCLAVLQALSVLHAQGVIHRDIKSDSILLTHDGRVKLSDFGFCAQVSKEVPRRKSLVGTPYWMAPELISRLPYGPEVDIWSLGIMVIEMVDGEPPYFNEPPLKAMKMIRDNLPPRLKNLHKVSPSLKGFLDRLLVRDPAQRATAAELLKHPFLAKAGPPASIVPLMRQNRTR
UniProt Q9P286, whole entry: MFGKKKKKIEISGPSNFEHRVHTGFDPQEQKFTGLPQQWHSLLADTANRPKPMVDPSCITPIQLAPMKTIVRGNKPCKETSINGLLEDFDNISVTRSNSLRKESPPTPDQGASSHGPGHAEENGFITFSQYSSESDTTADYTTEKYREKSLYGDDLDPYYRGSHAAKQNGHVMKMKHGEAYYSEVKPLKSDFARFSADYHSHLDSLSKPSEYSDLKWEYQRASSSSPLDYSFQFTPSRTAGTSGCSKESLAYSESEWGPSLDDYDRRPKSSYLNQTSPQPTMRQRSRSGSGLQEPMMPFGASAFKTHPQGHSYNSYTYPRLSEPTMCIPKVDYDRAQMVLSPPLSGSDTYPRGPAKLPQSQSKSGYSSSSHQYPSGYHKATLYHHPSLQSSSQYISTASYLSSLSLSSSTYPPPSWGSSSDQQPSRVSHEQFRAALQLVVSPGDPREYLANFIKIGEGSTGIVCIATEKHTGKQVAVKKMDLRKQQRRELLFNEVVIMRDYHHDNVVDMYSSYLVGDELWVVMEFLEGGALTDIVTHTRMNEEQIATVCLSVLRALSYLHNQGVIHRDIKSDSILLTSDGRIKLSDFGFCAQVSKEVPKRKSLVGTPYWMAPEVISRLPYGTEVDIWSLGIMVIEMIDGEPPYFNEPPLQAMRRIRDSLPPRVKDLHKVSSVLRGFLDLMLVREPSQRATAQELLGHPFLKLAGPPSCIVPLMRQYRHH
UniProt P31749, whole entry: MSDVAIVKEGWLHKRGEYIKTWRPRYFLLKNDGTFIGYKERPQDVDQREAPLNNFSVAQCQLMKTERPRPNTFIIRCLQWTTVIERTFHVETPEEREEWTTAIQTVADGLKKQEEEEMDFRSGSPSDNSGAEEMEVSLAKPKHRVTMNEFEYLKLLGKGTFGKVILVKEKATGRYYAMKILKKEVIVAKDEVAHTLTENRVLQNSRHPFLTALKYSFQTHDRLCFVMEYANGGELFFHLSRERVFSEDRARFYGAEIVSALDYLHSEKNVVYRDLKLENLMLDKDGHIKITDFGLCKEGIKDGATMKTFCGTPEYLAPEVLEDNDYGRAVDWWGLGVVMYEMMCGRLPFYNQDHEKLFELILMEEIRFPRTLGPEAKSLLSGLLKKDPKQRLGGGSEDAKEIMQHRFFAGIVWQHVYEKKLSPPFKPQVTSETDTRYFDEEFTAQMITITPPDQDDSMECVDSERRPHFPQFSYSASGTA

For data set [1], the target named is T1, PDK1 (Homo sapiens, UniProt O15530). The settings on record: cited from earlier work.
In data set [2] the target is T1, PDK1. The settings on record: ITC; cited from earlier work. Background: ITC needs no label: the signal is the heat of the interaction.
For data set [3] the following is noted: cited from earlier work.
In data set [4] the target is heRG (Homo sapiens, UniProt Q12809). The settings on record: cited from earlier work.
Data set [5] has as its target T2, PAK1 (Homo sapiens, UniProt Q13153). The settings on record: read-out: PAK1 Kd; cited from earlier work.
Data set [6] concerns the target PAK2 (Homo sapiens, UniProt Q13177). The settings on record: read-out: PAK2 Kd; cited from earlier work.
For data set [7], the target named is T2, PAK1. The settings on record: read-out: PAK1 IC50; cited from earlier work.
For data set [8], the target named is PAK3 (Homo sapiens, UniProt O75914). The settings on record: read-out: PAK3 Kd; cited from earlier work.
For data set [9], the target named is PAK4 (Homo sapiens, UniProt O96013). The settings on record: read-out: PAK4 Kd; cited from earlier work.
Data set [10] deals with PAK5 (Homo sapiens, UniProt Q9P286). The settings on record: read-out: PAK5 Kd; cited from earlier work.
In data set [11] the target is AKT1 (Homo sapiens, UniProt P31749). The settings on record: cited from earlier work.

The structures appear in SMILES notation.

As for `O=C(O)/C=C(/CCc1ccc(Cl)c(Cl)c1)c1ccccc1`, the “Kinase activity assay Amax” value in data set [1] is 2.4 fold. Moreover, in data set [2], the “Ki” value is 71800 M⁻¹ and the TΔS is on record as 2.80 kcal/mol.
On to `Cc1ncc(NC(=O)NC2c3ccccc3-c3ccccc32)c(-c2ccccc2)n1`, for which, in [3], the pKa was 7.4. Besides, the “heRG dof. Binding I50” value in data set [4] was 0.31 µM. Also, the Kd in data set [5] is 130 nM; in [6] it was > 4000 nM; in data set [8] it was > 4000 nM; in data set [9], > 4000 nM; in [10], > 4000 nM. Besides, in data set [7], the IC50 is 190 nM.
`COc1ccccc1Cn1c(-c2cccnc2N)nc2cc(Br)cnc21`: the “Akt1 ΔTm” value in data set [11] is “no shift”.
With `O=C(Nc1ccc(OC(F)(F)F)cc1)c1cnc(N2CC[C@@H](O)C2)c(-c2cncnc2)c1`, in data set [3] (second value of clogP/logP), the logP is 3.5.

By pKa is commonly meant the negative logarithm of the acid dissociation constant. For orientation: Kd means the constant that tells how readily two partners part at equilibrium. One may read the IC50 as the concentration needed to halve the response being measured. What is called logP is a log measure of how a compound divides between an organic and an aqueous phase.
